The record followed here is patent publication US10800732B2, “Substituted malonamides and their use as antibacterial drugs” (National Taiwan University, priority 2015, dated 2020).

The assay relates to MRSA (ATCC 33592). In words: Survival of MRSA-infected C57BL/6 mice, intraperitoneal administration.

One may read the ED50 as the dose at which the effect has come halfway, by size or by number of responders. As for `O=C(Nc1ccc(Cl)c(C(F)(F)F)c1)C(CCCl)C(=O)Nc1ccc(Cl)c(C(F)(F)F)c1` [SC5005], the “mice surviving after the treatment” value was “only one” (1 mg/kg i.p. at 1 h, 24 h and 48 h post-infection, N=5); “only one” (3 mg/kg i.p. at 1 h, 24 h and 48 h post-infection, N=5). In addition, the “mice surviving till the end of the study” value (10 mg/kg i.p. at 1 h, 24 h and 48 h post-infection, N=5) was “three of the mice”. Further, the ED50 (effective dose for 50% of the group, i.p.) is on record as approximately 10 mg/kg.
